## Binding of CDR-mutated scFvs to a peptide of the spike HR2 region

Data: MIT Lincoln Laboratory AlphaSeq set, Engelhart et al. 2022, doi:10.1038/s41597-022-01779-4, as distributed in FLAb.

All variants were tested on one target, the spike HR2 peptide PDVDLGDISGINAS (SARS-CoV-2).

Parent scFv Ab-95: VH joined to VL by three GGGGS repeats. Changes lie in the light chain CDRs alone.
VH: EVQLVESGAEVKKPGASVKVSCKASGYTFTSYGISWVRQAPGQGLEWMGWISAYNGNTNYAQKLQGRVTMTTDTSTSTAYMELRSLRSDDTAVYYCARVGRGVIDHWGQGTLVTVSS
VL: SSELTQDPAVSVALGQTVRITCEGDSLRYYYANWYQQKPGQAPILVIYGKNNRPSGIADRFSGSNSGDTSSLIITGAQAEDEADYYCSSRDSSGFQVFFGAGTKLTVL

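Library AAYL52 holds single substitutions and randomly drawn double and triple substitutions in the CDRs. AlphaSeq pools MATa yeast showing the antibodies with MATalpha yeast showing the peptide. The frequency of each diploid, read from paired DNA barcodes, reflects how well the two displayed proteins bind. Scores were corrected for input abundance and mapped to Kd with protein pairs of known affinity run in the same pool. The assay was run in three technical replicates.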

Each variant is given by its three light chain CDRs, as the data file delimits them; those of the parent are EGDSLRYYYAN, GKNNRPS, SSRDSSGFQVF.
Values are log10 of the apparent Kd in nM; lower means stronger binding.
Replicates are averaged; those with no signal do not enter the mean.
Where no diploid with the target was found in any replicate, the entry reads "nd": below detection, most likely a poor binder, though not proof of it.

For EGDSLRYYRAN / GKNLRPS / SSRDSSNFQVF, the assay gave 2.37 (3 of 3 replicates; controls 4 of 9).
For EGDSLRYYYAN / GRWNRPS / SSRDSSGTQVF, the assay gave 3.48 (2 of 3 replicates; controls 0 of 9).
For EGDSLRVYYPN / GGNNRPS / SSRDSSGFQVF, the assay gave 2.13 (3 of 3 replicates; controls 6 of 9).
For AGDSLRYYYAN / TKNNRPS / SSRDSSGCQVF, the assay gave 3.13 (1 of 3 replicates; controls 3 of 9).
For EGDSLRYYYAN / GKNNRPF / SWRDSRGFQVF, the assay gave nd (0 of 3 replicates; controls 0 of 9).
For EGDSLRYYYAN / GKTNRPS / SSRDSSDFQVF, the assay gave nd (0 of 3 replicates; controls 1 of 9).
For EGDSHRYYYAN / GKVNRPK / SSRDSSGFQVF, the assay gave 3.79 (1 of 3 replicates; controls 3 of 9).
For EGDSLRYYYAH / GKHNRPE / SSRDSSGFQVF, the assay gave 4.55 (1 of 3 replicates; controls 1 of 9).
For EGDSLCYYYAN / GKNNRPS / SSRDSSLFQMF, the assay gave nd (0 of 3 replicates; controls 0 of 9).
For IGDSLRYYYAN / GKNNRPS / SSRDSSSFQVF, the assay gave 3.03 (3 of 3 replicates; controls 3 of 9).
For ENDSLRYYYAE / GKNNRPS / SSRDSYGFQVF, the assay gave 4.73 (2 of 3 replicates; controls 2 of 9).
For EGDSLDYYYAN / KKNNRPS / SSRSSSGFQVF, the assay gave 3.19 (3 of 3 replicates; controls 3 of 9).
For EGDNLHYYYAN / HKNNRPS / SSRDSSGFQVF, the assay gave 4.56 (2 of 3 replicates; controls 4 of 9).
For DGDSLRYYYAV / GKNNRPS / SSRDSSGFQVF, the assay gave 3.68 (2 of 3 replicates; controls 5 of 9).
For EGDSLRYYHAN / GKNNRPS / SSRDSSGFHVV, the assay gave 3.39 (2 of 3 replicates; controls 2 of 9).
For EGDSKRYDYAN / GLNNRPS / SSRDSSGFQVF, the assay gave 2.41 (3 of 3 replicates; controls 2 of 9).
For EGDSLRYYYAN / GKNNRPS / SSRDCSGTQVF, the assay gave 3.10 (1 of 3 replicates; controls 1 of 9).
For EGDSLRYYKAN / GKNNRPS / SKRDSSGFQVF, the assay gave 3.16 (3 of 3 replicates; controls 2 of 9).
For EGDSLRYYYAN / GKNNPPS / SSRDSSPFQVF, the assay gave 4.14 (3 of 3 replicates; controls 2 of 9).
For EGDSLRYKYAM / GKNNRPE / SSRDSSGFQVF, the assay gave 2.26 (3 of 3 replicates; controls 3 of 9).
For EGDSLCYYYAN / GKNNRPS / SRRDSSHFQVF, the assay gave 5.35 (1 of 3 replicates; controls 2 of 9).
For FGDSIRYYYAN / GKNNRPL / SSRDSSGFQVF, the assay gave 5.10 (2 of 3 replicates; controls 4 of 9).
For EGISLRYYYAG / GKNNRPG / SSRDSSGFQVF, the assay gave 3.73 (3 of 3 replicates; controls 4 of 9).
For EGDSLSYYYAN / GKNNRPR / SSRDSSGFQRF, the assay gave 3.64 (3 of 3 replicates; controls 3 of 9).
For EGGSYRYYYAN / GKNNRPS / SSRDSSGFGVF, the assay gave 4.05 (2 of 3 replicates; controls 5 of 9).
For EGDSLRYYYAN / GKNNRPL / GSEDSSGFQVF, the assay gave nd (0 of 3 replicates; controls 0 of 9).
For ENDSLRYYYAN / GKKNRPH / SSRDSSGFQVF, the assay gave nd (0 of 3 replicates; controls 4 of 9).
For EGDSLRYYYAN / WNNNRPS / SSRDSSRFQVF, the assay gave 3.51 (2 of 3 replicates; controls 3 of 9).
For EGDSNRYYYAN / GKNNRPS / SSRDSSGDQVE, the assay gave 3.22 (2 of 3 replicates; controls 2 of 9).
For EGDSLRWYCAN / CKNNRPS / SSRDSSGFQVF, the assay gave 4.31 (2 of 3 replicates; controls 5 of 9).
For EGDSLRYYYAN / YKNNRPS / SSRDSSRFQVS, the assay gave 4.38 (2 of 3 replicates; controls 1 of 9).

In this assay the parent's reference entry averaged 2.31; its copy inside this library read 2.25.
Background: pairings of library AAYL52 with three empty control strains gave a value in 28% of cases (median 3.91, 5th percentile 2.90). Values in that range, when seen in few replicates, are hard to tell from nonspecific mating. Also given: how often the same scFv was detected with the empty control strains.